# In patent US4006232A, “Therapeutic method of treating cardiac arrhythmias utilizing 3-substituted diphenylhydantoins” (Miles Laboratories, Inc., priority 1974, dated 1977):
# Assay: in vivo
# Conditions: mouse, ip
# Procedure: The tests compounds were administered to groups consisting of 5 mice in varying intraperitoneal doses. Ten minutes after administration of a given dose of a compound, a mouse was transferred to a covered 300 ml glass beaker which contained a wad of cotton saturated with about 20 ml of chloroform. The animal was observed closely and removed from the beaker immediately after respiratory arrest. The heart was quickly exposed by making an incision through the abdomen, diaphragm, thorax and pericardium for visual inspection of ventricular rate and rhythm. Ventricular contractions were counted for 30 seconds. According to the procedure reported by Lawson (J. Pharmacol. Exp. Therap., 160:22 [1968]), animals with a ventricular rate not exceeding 100 contractions during the 30 second observation period were considered protected. Results obtained with each dose were used to calculate the mean effective doses (ED50) after the method of Litchfield and Wilcoxon (J. Pharmacol. Exp. Therap. 96: 99-113 [ 1949]).
compound,measurement,value
"O=C1NC(=O)C(c2ccccc2)(c2ccccc2)N1 [I, 5,5-diphenyl-2,4-imidazolidinedione]",selectivity ratio,2.54
